For test [1], the system named is p9T colorectal cancer organoids having a mutant KRAS. The experiment in a line: Validation of synthetic lethality in patient-derived organoid p9T. The format is cell-based, human. The settings on record: organoid printed as p19T. As for the experimental part: (§1) Tumor organoids from colorectal cancer containing a Kras12D oncogenic mutation were treated for three days, with different concentrations of one of a 420 anti-cancer compound library (SellectChem), in the presence and absence of a combination of 1 μM selumetinib and 1 μM afatinib to inhibit MEK, EGFR and ERBB2. The induction of apoptosis was measured by semi-automated imaging.

Test [2] concerns p6T colorectal cancer organoids having a mutant KRAS. The experiment in a line: Validation of synthetic lethality in patient-derived organoid p6T. In kind it is cell-based, human. As for the experimental part:
as §1

This is an account of results in US11723891B2, “Drug combinations for use in the treatment of RAS-mutant cancer” (UMC Utrecht Holding B.V., priority 2018, dated 2023).

Regarding `CCC1=C[C@@H]2CN(C1)Cc1c([nH]c3ccccc13)[C@@](C(=O)OC)(c1cc3c(cc1OC)N(C)[C@H]1[C@@](O)(C(=O)OC)[C@H](OC(C)=O)[C@]4(CC)C=CCN5CC[C@]31[C@@H]54)C2` [Vinorelbine], the “synergy with afatinib + selumetinib in p19T” value in test [1] is recorded as “very synergistic”.

With `CC(=O)O[C@@]12CO[C@@H]1C[C@H](O)[C@@]1(C)C(=O)[C@H](O)C3=C(C)[C@@H](OC(=O)[C@H](O)[C@@H](NC(=O)OC(C)(C)C)c4ccccc4)C[C@@](O)([C@@H](OC(=O)c4ccccc4)[C@H]21)C3(C)C` [Docetaxel], in test [2], the “synergy with afatinib + selumetinib in p6T” value is recorded as “very synergistic”.
